Assay results published in ChEMBL document CHEMBL1811916, “Selective kainate receptor (GluK1) ligands structurally based upon 1H-cyclopentapyrimidin-2,4(1H,3H)-dione: synthesis, molecular modeling, and pharmacological and biostructural characterization” (J Med Chem, 2011).

Amino acid sequences for entries named in this document (tags omitted). A change or cut given only in a name is not applied to a line headed by its entry.
UniProt P22756: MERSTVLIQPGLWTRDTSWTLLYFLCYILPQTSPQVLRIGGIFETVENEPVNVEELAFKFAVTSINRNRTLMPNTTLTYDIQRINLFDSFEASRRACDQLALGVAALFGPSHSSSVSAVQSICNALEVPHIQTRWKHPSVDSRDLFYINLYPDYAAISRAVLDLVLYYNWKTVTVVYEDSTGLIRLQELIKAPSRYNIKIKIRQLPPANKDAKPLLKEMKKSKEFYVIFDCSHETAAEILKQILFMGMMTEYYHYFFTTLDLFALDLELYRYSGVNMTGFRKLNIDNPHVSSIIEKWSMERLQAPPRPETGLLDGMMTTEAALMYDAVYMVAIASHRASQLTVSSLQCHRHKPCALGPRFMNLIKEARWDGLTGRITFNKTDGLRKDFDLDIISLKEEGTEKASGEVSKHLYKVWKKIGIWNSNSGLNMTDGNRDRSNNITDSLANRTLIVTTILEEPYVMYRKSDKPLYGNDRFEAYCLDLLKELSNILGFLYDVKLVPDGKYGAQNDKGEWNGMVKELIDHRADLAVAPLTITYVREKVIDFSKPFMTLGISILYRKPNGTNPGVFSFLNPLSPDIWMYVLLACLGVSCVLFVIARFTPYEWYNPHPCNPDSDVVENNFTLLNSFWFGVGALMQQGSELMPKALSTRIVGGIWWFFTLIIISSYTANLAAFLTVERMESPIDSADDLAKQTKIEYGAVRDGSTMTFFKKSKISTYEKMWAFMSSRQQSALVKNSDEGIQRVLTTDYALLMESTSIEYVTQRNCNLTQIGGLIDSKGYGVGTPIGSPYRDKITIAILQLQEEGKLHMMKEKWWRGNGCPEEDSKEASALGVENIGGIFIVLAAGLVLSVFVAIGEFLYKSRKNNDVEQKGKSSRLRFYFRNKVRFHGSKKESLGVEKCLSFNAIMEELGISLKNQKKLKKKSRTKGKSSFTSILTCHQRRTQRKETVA

Columns and labels:
[1] = test system: GluK3/GluK1 Ki ratio (Rattus norvegicus); assay: Ratio of Ki for rat GluK3 to Ki for rat GluK1
[2] = species: Rattus norvegicus; assay: Ratio of Ki for rat GluA2 to Ki for rat GluK1
[3] = target: Glutamate receptor ionotropic, kainate 1 (Rattus norvegicus, UniProt P22756); assay: Displacement of [3H]SYM2081 from rat GluK1 expressed in Sf9 cells

| Ratio Ki [2] | SMILES | also measured |
| --- | --- | --- |
| – | N[C@@H](Cn1c(=O)[nH]c(=O)c2c3c(sc21)CCCC3)C(=O)O | Ratio Ki [1]: 20 |
| 85 | N[C@@H](Cn1c(=O)[nH]c(=O)c2ccsc21)C(=O)O | – |
| – | N[C@@H](Cn1c(=O)n(Cc2ccsc2C(=O)O)c(=O)c2cscc21)C(=O)O | Ki [3]: 157 nM |
| 119 | N[C@@H](Cn1c(=O)[nH]c(=O)c2cscc21)C(=O)O | – |
